## Measured affinities in a library of Ab-95 light chain variants

Source: Engelhart et al. 2022 (doi:10.1038/s41597-022-01779-4), MIT Lincoln Laboratory and A-Alpha Bio; data file from the FLAb repository.

Target peptide (SARS-CoV-2 spike, HR2 region): PDVDLGDISGINAS

Parent scFv Ab-95: VH joined to VL by a (GGGGS)3 linker. Changes lie in the light chain CDRs alone.
VH: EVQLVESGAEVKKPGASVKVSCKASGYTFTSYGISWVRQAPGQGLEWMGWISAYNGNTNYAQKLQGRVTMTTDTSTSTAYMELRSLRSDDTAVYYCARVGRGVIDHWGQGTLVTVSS
VL: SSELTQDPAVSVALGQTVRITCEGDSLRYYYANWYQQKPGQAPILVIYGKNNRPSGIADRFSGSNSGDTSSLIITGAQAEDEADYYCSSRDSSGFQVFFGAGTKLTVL

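The library (AAYL52) carries one to three amino acid substitutions per variant, with no insertions or deletions. The scFvs were displayed on barcoded MATa yeast, the peptide on MATalpha yeast. After mating in shaken culture at 30 °C for 16 h, diploids were selected and their barcode pairs sequenced. A regression on co-assayed BCL2-family reference pairs converts the normalised counts of each replicate to an apparent Kd. Each pool was mated in three replicate cultures.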

Changes read parent residue, position, new residue, counted from the first residue of the VL shown.
Every variant below is changed at N33 of the VL (sequential numbering).
The Kd shown is the geometric mean over detected replicates; a lower Kd is a better binder.
An entry "no signal" has no value in the source: the pair was not observed among the diploids in any replicate. This suggests poor binding but is not conclusive.
Order: sorted from the lowest average up, undetected variants last.
In this assay the parent's reference entry averaged 200 nM; its copy inside this library read 180 nM.
Empty control strains, which show no peptide, gave a signal in 28% of pairings with library AAYL52; the median was 8.2 µM and 95% of these signals were weaker than 800 nM. No background was subtracted.

changes,apparent Kd,replicates with signal
Y30N+N33V+S88A,10 nM,3 of 3
R28L+N33C+S88A,15 nM,3 of 3
E23Q+Y30S+N33R,17 nM,3 of 3
Y30T+Y31A+N33Q,59 nM,3 of 3
Y30D+Y31K+N33M,170 nM,3 of 3
N33C+F95A,1.0 µM,1 of 3
N33A+S89N+S92F,1.1 µM,1 of 3
D25Q+N33T+G94I,1.3 µM,1 of 3
Y29I+N33I,1.5 µM,1 of 3
L27V+N33P+K50A,1.5 µM,1 of 3
S26V+N33W,1.6 µM,3 of 3
S26R+Y30P+N33Q,1.9 µM,3 of 3
G24V+N33A+N51L,1.9 µM,2 of 3
E23H+N33C+S92L,2.1 µM,1 of 3
G24D+N33F+F98L,2.1 µM,2 of 3
N33S+R90K+F95R,3.2 µM,1 of 3
L27G+N33T+D91T,3.2 µM,3 of 3
R28P+Y29R+N33Y,4.1 µM,3 of 3
E23V+D25P+N33R,4.4 µM,2 of 3
N33Q+S55Y+V97G,4.6 µM,1 of 3
G24W+N33W+N51W,4.6 µM,1 of 3
Y31R+N33D,4.9 µM,2 of 3
N33E+N52T+S92P,5.3 µM,3 of 3
N33W+P54V+S89A,5.3 µM,1 of 3
L27S+R28N+N33R,5.4 µM,3 of 3
N33I+P54Q+S92N,6.2 µM,2 of 3
D25T+N33I+F98Y,6.4 µM,1 of 3
Y31W+N33V+F95A,7.0 µM,2 of 3
Y31Q+N33D+R53G,7.1 µM,2 of 3
Y30H+N33A+V97M,7.3 µM,3 of 3
N33C+N52W+F95C,7.8 µM,2 of 3
L27W+N33F+N51D,8.2 µM,2 of 3
N33C+S55L+Q96N,8.3 µM,1 of 3
N33W+G49T+R53A,8.7 µM,1 of 3
Y31H+N33P+F95K,9.0 µM,1 of 3
L27R+Y29V+N33P,9.7 µM,1 of 3
N33R+R53I+F95C,9.7 µM,1 of 3
S26Q+A32K+N33P,10 µM,1 of 3
A32C+N33K+Q96S,13 µM,1 of 3
N33K+R53P,13 µM,1 of 3
N33D+R53G+P54A,18 µM,1 of 3
N33E+G94E+V97L,18 µM,2 of 3
N33H+S55G+G94S,18 µM,2 of 3
S26C+N33K+S88K,19 µM,1 of 3
N33P+S55G+G94N,19 µM,2 of 3
N33C+S89E+V97Y,25 µM,1 of 3
A32I+N33F+N51K,28 µM,1 of 3
Y31K+N33I,28 µM,2 of 3
L27I+N33M,29 µM,1 of 3
N33T+S92H+F98P,29 µM,1 of 3
Y31I+N33Q+F95I,30 µM,3 of 3
S26Q+N33M+R53K,33 µM,1 of 3
N33Q+G49K+S89V,35 µM,2 of 3
N33C+P54F+Q96K,41 µM,2 of 3
N33K+P54F+S55A,84 µM,3 of 3
L27M+N33C+S55M,90 µM,2 of 3
N33E+F95V+F98M,110 µM,1 of 3
N33S+K50G+V97Y,120 µM,1 of 3
N33D+R90F+S93V,150 µM,1 of 3
R28T+N33R+G94I,160 µM,2 of 3
N33G+F95K+F98Q,210 µM,1 of 3
Y31D+N33P+D91I,no signal,0 of 3
N33M+S55I+S93W,no signal,0 of 3
R28Y+N33K+V97T,no signal,0 of 3
E23M+N33D+F98E,no signal,0 of 3
N33A+S55E+F95I,no signal,0 of 3
S26Y+N33C+R90L,no signal,0 of 3
D25M+N33R+V97Y,no signal,0 of 3
E23K+N33Q+G49K,no signal,0 of 3
N33C+S93I+F95P,no signal,0 of 3
S26L+N33V,no signal,0 of 3
N33C+K50E,no signal,0 of 3
N33F+N52P+S55N,no signal,0 of 3
N33E+S88P+S89W,no signal,0 of 3
N33E+D91L+V97L,no signal,0 of 3
E23W+N33Q+S88F,no signal,0 of 3